The subject of this assay is Langerhans cells generated in vitro. Kind of assay: Chemoattraction and migration of Langerhans cells of Example 6. The format is cell-based, human.

Each structure is given as a SMILES string.

With `O=[N+]([O-])c1cc([N+](=O)[O-])c(S(=O)(=O)O)c([N+](=O)[O-])c1`, the “migration of Langerhans cells” value is listed as “migrating”.
